Drawing on patent US7119095B2, “Pharmaceutically active compounds and methods of use thereof” (Dana Farber Cancer Institute, priority 2001, dated 2006), this text covers IC50 for 1 molecule.

For orientation: IC50 means the concentration needed to halve the response being measured.

The structures appear in SMILES notation.

The experiment concerns the target T1, rat liver DHFR (Rattus norvegicus, UniProt Q920D2).
T1 sequence (Q920D2 1-187): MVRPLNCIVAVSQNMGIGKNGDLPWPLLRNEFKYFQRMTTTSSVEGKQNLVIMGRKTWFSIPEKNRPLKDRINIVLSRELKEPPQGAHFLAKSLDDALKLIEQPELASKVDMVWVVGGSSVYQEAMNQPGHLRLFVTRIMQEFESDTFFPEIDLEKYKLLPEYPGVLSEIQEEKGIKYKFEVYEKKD
The experiment in a line: Inhibition of rat liver DHFR (literature assay).

The molecule `COc1ccc(OCCCCC(=O)O)cc1Cc1cnc(N)nc1N` [Compound 3g] had an IC50 of 5.4 µM.
